# Apparent affinities of Ab-95 variants for a coronavirus HR2 peptide

Reference: Engelhart et al. 2022, doi:10.1038/s41597-022-01779-4. File: FLAb, binding data.

Binding partner: SARS-CoV-2 spike HR2 peptide, sequence PDVDLGDISGINAS.

Parent scFv Ab-95: VH joined to VL by the linker GGGGSGGGGSGGGGS. Changes lie in the light chain CDRs alone.
VH: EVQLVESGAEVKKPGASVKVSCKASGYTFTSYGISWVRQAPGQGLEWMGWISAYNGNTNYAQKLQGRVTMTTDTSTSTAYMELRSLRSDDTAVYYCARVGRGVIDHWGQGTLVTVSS
VL: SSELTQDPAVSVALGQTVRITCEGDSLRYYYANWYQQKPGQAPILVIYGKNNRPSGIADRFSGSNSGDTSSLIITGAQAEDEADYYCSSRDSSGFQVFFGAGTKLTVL

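In library AAYL52, one, two or three CDR residues were substituted; doubles and triples were drawn at random. The scFvs were displayed on barcoded MATa yeast, the peptide on MATalpha yeast. Pairs that bind mate more often; barcode pairs of the diploids are counted by sequencing. Read counts were normalised to the haploid input and turned into Kd by a linear fit to BCL2-family pairs of known affinity, for each replicate. Each pool was mated in three replicate cultures.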

Variants are written as CDR1, CDR2 and CDR3 of the light chain (limits as in the source). Parent: EGDSLRYYYAN, GKNNRPS, SSRDSSGFQVF. This list gathers variants with a substitution at R53 (VL, numbered from residue 1). Kd is apparent (estimated from mating counts) and averaged on the log scale over replicates with a signal. Smaller is tighter. "nd" marks a missing value. The strain was present, yet no cells mated with the target were sequenced in any replicate, which points to weak or no binding. As a blank, each scFv also met three strains without target: over library AAYL52, 28% of these pairings were detected, typically at 8.2 µM and seldom below 800 nM.

- EGDSLRYYYAN | GKFNNPS | SSRDSKGFQVF = 11 µM (2 of 3 replicates)
- EGDSLRYYHAN | GKNNAPS | KSRDSSGFQVF = 480 µM (1 of 3 replicates)
- EGDSLRYYYAN | GKNNFPS | SSRDSSGFKAF = nd (0 of 3 replicates)
- EGRSLRYYYAN | GKNNNPS | SSRDSSGSQVF = 2.0 µM (3 of 3 replicates)
- EGDSLRYYYAN | GKNNTPY | SSRDSSGFQVN = 1.8 µM (1 of 3 replicates)
- EGDNPRYYYAN | GKNNLPS | SSRDSSGFQVF = 4.0 µM (2 of 3 replicates)
- EGDSLRRYYAN | GKNNWPS | SSRDSSGFQGF = 35 µM (1 of 3 replicates)
- VGDSLRYYYAN | GKNNSPD | SSRDSSGFQVF = 120 nM (3 of 3 replicates)
- EGDSLRYYGAN | GKNNLPS | SSRDSVGFQVF = 700 nM (3 of 3 replicates)
- EGDSLRYYSAN | GKNNLPS | SSRDSSGFAVF = 370 nM (3 of 3 replicates)
- AGDSLRYYYAN | GKNNGPS | SSRDSSGFQVF = 11 µM (2 of 3 replicates)
- EGDSLRQYYAN | GKNNDPS | SSRDSSGNQVF = 3.5 µM (2 of 3 replicates)
- EGDPLRYYYAN | GKNNTGS | SSRDSSGFQVF = 470 nM (3 of 3 replicates)
- EGDSLRYYYAN | GKNFKPS | SSRDWSGFQVF = 79 nM (3 of 3 replicates)
- DGDSLRYYYAN | GKNNAPS | SSRDSSGAQVF = 5.6 µM (2 of 3 replicates)
- EGDLLRYYYAN | GKMNAPS | SSRDSSGFQVF = 46 µM (1 of 3 replicates)
- EGDSLRYYYAN | GKHNQPS | SSRDSSGFQVF = 36 µM (2 of 3 replicates)
- EEDSLNYYYAN | GKNNDPS | SSRDSSGFQVF = 220 µM (1 of 3 replicates)
- EGDSLRYYYAT | GKNNDPS | SSRDSSGFQVS = 3.5 µM (2 of 3 replicates)
- ENDSLRYYYAN | GKNNCPS | PSRDSSGFQVF = 140 µM (1 of 3 replicates)
- EGDSLRYYYAN | IKLNGPS | SSRDSSGFQVF = 240 µM (1 of 3 replicates)
- EGDSLRYYYAN | GKNNTPS | SSRDQSGFDVF = 500 nM (3 of 3 replicates)
- EGLSQRYYYAN | GKNNGPS | SSRDSSGFQVF = 780 nM (1 of 3 replicates)
- EGDSLRYYDAN | GKNNHPS | SSRDSSGFWVF = 1.0 µM (3 of 3 replicates)
- EGDSLRYYYAN | GRFNTPS | SSRDSSGFQVF = 59 µM (2 of 3 replicates)
- EGDSLRYYYAN | GKNNHPE | SSRDSSDFQVF = 3.6 µM (1 of 3 replicates)
- EGDSLRYYYAN | GKNNHPS | SSRDDHGFQVF = 320 nM (3 of 3 replicates)
- EGDSLRYQYAN | GKNNQPS | MSRDSSGFQVF = 4.1 nM (3 of 3 replicates)
- EGDSLRCYYAN | GKNNLPS | SSDDSSGFQVF = nd (0 of 3 replicates)
- EGDSLRYYYAY | GKNNMPS | SSWDSSGFQVF = nd (0 of 3 replicates)
- EGDSLRYYYAN | GKNNNPM | SSRDGSGFQVF = 8.6 µM (2 of 3 replicates)
- EGDSHRYYYAQ | GKNNGPS | SSRDSSGFQVF = 15 µM (3 of 3 replicates)
- EGDSLRYYEAN | GKNNKPS | SSRDSTGFQVF = 14 nM (3 of 3 replicates)
- EGDSLRYYYAN | GKNNYPS | SSRDSSGEQGF = nd (0 of 3 replicates)
- EGDSLRYYYAP | GKNNAPS | PSRDSSGFQVF = 12 µM (2 of 3 replicates)
- EGDSLRYYYAN | GKNNFPS | SSRDSSGFQVT = nd (0 of 3 replicates)
- EGYSLRYYYAN | GKNNYPS | DSRDSSGFQVF = 4.7 µM (2 of 3 replicates)
- EGDSLRYYYAN | GKNNAPS | SSRDSSGFDMF = 450 nM (3 of 3 replicates)
- EGDSLRYYYAN | GKNSAPS | SSRDSSGLQVF = 6.7 µM (2 of 3 replicates)
- EGDSLRYYCAN | GKNNIPS | SSRMSSGFQVF = 600 nM (3 of 3 replicates)
- EGWSLRYYYAN | GKNNYPS | SSRDNSGFQVF = 12 µM (2 of 3 replicates)

For reference, the parent read 200 nM as the reference entry and 180 nM as a member of this library.